Data from publication PMC10615923.

Protein sequences, listed by entry. Tags and fused reporters are not part of them. Residues count along the entry.
UniProt P05177, whole entry: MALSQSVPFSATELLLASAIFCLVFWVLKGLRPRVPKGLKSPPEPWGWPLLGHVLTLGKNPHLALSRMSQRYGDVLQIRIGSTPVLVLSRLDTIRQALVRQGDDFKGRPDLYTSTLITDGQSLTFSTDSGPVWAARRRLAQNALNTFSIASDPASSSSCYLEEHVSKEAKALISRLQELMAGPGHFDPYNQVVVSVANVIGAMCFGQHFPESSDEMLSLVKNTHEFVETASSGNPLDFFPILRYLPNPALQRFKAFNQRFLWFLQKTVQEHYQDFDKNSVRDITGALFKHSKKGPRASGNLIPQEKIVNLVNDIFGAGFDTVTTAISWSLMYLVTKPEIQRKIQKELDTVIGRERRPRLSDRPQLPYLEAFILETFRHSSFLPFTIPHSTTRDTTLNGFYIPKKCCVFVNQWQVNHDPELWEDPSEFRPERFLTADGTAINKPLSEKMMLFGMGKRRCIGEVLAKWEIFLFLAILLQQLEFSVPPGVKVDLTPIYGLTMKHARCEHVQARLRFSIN
UniProt P20813, whole entry: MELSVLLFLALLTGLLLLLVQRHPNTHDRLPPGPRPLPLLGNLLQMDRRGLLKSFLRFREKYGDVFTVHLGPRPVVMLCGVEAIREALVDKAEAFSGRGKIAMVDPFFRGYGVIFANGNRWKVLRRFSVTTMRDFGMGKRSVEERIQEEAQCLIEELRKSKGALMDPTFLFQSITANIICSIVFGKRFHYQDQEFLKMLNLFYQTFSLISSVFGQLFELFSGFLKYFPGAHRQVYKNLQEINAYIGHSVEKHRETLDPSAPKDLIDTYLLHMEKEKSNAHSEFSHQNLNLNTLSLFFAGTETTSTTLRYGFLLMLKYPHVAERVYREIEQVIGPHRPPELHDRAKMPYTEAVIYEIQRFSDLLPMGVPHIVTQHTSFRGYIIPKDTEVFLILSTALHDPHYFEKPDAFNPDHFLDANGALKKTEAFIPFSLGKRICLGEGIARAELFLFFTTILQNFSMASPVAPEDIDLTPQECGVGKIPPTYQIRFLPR
UniProt P11712, whole entry: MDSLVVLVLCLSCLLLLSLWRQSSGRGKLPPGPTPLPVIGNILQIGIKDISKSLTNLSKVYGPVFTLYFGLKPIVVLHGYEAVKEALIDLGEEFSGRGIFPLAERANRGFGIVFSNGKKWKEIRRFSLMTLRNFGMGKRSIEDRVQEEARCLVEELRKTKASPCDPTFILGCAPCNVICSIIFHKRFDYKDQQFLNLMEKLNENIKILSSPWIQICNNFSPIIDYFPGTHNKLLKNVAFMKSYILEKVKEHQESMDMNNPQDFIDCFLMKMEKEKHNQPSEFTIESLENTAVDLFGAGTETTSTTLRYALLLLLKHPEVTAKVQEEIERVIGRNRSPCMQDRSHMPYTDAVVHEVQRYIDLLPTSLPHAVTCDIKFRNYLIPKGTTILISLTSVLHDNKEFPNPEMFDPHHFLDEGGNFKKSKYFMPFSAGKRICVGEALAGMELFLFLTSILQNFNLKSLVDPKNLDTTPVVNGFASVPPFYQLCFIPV
UniProt P33261, whole entry: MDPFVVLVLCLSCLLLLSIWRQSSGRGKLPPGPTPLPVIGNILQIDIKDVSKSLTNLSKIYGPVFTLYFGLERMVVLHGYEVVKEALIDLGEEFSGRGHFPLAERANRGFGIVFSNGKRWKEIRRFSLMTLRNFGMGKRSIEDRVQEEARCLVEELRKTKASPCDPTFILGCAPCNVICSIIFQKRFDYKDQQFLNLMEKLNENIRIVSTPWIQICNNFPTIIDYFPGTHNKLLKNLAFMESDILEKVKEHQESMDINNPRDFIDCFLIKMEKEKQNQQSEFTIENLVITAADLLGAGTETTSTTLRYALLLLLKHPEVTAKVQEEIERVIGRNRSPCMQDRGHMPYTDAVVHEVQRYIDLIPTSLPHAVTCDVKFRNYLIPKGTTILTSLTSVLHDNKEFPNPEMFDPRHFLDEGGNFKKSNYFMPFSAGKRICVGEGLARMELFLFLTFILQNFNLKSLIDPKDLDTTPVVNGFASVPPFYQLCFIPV
UniProt P10635, whole entry: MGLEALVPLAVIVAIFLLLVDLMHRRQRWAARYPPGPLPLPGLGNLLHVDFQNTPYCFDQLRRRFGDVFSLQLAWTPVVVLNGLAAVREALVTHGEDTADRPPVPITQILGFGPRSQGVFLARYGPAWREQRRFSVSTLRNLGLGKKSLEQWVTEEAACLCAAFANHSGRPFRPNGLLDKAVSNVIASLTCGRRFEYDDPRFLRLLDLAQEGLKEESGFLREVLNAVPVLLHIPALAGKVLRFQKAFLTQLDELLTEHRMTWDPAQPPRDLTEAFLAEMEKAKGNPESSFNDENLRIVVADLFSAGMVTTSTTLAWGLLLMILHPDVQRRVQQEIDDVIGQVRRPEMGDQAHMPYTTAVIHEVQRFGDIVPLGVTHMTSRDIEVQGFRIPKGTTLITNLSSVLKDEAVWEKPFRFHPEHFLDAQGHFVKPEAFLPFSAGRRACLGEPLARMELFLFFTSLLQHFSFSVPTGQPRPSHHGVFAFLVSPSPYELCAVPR
UniProt P05181, whole entry: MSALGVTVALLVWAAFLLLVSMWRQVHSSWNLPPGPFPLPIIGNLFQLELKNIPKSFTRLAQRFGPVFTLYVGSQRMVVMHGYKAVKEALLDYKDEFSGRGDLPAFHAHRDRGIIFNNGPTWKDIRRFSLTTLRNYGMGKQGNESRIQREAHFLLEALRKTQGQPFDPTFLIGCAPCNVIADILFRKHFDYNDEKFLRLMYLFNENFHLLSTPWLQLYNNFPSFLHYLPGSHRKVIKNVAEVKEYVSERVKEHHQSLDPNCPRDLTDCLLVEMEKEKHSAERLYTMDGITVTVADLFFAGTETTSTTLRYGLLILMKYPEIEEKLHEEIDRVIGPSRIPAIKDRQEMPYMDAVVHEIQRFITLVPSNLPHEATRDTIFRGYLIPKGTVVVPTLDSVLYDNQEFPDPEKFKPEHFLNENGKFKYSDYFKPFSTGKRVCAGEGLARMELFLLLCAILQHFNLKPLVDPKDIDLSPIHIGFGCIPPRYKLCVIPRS
UniProt P08684, whole entry: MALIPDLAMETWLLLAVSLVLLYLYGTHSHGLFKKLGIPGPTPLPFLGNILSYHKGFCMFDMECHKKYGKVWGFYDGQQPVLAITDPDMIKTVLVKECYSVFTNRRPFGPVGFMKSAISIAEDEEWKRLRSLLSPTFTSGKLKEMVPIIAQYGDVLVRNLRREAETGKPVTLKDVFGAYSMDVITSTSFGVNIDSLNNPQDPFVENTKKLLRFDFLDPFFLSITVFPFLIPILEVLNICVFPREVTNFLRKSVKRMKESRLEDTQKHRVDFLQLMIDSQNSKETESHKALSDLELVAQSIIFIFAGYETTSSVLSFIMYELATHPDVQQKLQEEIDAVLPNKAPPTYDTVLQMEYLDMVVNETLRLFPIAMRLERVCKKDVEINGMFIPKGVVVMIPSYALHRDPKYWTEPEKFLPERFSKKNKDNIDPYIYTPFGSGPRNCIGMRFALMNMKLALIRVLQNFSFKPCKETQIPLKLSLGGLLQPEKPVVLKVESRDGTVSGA
UniProt P31513, whole entry: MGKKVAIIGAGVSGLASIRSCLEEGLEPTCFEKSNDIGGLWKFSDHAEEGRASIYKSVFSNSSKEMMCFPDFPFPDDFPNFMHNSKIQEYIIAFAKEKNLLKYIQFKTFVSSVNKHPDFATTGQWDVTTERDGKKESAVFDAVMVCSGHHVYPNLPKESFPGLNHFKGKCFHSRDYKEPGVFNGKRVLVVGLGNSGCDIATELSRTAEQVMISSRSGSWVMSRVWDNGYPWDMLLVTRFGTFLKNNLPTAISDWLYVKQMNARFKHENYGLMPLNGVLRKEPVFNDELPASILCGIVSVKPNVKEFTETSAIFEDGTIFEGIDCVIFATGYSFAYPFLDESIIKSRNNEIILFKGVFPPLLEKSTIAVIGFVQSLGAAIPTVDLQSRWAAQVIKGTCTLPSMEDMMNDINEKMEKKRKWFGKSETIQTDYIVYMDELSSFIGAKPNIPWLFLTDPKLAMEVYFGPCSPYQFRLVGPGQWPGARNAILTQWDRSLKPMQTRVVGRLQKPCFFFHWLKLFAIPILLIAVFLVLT
UniProt P49326, whole entry: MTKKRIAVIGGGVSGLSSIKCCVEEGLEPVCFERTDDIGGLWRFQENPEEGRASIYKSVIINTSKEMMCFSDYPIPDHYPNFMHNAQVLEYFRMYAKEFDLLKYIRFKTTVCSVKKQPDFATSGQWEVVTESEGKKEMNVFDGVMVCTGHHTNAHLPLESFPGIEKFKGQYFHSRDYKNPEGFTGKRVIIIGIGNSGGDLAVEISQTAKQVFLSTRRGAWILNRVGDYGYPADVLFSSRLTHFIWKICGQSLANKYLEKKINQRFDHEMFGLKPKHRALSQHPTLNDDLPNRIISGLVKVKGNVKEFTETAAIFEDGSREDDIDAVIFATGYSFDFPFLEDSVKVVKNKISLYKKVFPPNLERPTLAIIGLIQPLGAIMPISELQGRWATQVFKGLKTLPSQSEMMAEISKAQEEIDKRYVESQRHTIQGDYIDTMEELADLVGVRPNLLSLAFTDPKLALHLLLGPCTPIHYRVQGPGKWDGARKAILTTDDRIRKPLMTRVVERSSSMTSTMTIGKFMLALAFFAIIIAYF
UniProt P22309, 26-533 limits assumed: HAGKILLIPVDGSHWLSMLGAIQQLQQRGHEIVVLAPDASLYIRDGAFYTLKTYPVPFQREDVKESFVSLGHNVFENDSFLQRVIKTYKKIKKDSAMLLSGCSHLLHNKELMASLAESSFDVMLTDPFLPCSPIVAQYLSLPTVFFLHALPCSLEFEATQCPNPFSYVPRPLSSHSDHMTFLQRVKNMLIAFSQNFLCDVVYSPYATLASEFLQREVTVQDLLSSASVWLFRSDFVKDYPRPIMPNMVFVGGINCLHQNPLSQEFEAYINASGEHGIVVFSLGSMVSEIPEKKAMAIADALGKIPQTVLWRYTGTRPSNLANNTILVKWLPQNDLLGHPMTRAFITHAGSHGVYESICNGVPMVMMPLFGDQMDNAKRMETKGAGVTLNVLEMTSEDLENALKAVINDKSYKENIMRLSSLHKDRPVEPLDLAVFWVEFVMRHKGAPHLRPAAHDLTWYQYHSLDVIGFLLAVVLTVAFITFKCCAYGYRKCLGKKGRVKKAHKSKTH
UniProt P19224, 27-532 limits assumed: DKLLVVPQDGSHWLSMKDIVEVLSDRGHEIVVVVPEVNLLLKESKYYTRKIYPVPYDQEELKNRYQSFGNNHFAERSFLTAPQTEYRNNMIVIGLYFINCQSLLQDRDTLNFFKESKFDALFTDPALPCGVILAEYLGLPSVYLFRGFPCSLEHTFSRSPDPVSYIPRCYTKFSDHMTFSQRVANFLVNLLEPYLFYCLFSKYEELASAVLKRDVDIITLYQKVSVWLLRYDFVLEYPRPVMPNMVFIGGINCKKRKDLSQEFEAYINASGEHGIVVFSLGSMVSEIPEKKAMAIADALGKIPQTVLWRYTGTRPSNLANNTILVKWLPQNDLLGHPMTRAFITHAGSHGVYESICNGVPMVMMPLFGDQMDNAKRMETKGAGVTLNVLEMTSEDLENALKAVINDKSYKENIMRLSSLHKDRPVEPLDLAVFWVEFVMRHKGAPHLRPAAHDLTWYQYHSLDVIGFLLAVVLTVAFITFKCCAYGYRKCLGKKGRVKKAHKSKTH
UniProt O60656, 26-530 limits assumed: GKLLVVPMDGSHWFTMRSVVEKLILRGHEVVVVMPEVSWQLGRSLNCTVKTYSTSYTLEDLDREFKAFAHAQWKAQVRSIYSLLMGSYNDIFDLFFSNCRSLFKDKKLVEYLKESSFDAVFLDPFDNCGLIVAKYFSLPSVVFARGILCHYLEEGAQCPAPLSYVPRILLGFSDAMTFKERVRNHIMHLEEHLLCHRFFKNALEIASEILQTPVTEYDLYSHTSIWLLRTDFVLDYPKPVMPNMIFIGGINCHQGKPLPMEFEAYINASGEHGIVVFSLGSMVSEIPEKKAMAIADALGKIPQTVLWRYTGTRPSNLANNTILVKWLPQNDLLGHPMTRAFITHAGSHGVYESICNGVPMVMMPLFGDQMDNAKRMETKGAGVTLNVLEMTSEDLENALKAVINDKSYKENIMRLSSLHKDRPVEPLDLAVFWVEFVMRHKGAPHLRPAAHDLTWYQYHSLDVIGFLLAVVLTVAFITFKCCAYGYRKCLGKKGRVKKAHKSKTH
UniProt P16662, 24-529 limits assumed: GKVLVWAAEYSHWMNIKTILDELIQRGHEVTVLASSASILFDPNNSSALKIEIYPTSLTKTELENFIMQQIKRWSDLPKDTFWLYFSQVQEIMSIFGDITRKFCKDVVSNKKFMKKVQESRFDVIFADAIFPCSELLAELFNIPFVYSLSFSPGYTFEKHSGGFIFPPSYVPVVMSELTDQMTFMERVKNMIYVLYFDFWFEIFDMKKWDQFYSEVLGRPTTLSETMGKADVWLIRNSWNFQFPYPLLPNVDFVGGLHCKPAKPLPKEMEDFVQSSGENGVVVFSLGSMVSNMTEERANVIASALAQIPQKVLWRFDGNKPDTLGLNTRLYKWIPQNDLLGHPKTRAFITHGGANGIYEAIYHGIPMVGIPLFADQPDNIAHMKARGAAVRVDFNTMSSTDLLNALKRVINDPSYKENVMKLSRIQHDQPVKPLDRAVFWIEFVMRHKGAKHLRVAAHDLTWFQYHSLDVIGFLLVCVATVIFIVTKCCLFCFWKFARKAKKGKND

Columns and labels:
HLM [1] = assay: Recombinant CYP/FMO study, HLM positive control incubation; conditions: 10 min
[2] = Recombinant CYP study, E. coli control (rCYP control); conditions: 10 min
CYP1A2 = CYP1A2 (Homo sapiens, UniProt P05177); assay: Incubation with recombinant CYP1A2 bactosomes; conditions: 10 min
CYP2B6 [3] = target: T1, CYP2B6 (Homo sapiens, UniProt P20813); assay: Incubation with recombinant CYP2B6 bactosomes
CYP2C9 = CYP2C9 (Homo sapiens, UniProt P11712); assay: Incubation with recombinant CYP2C9 bactosomes; conditions: 10 min
CYP2C19 = CYP2C19 (Homo sapiens, UniProt P33261); assay: Incubation with recombinant CYP2C19 bactosomes; conditions: 10 min
CYP2D6 = CYP2D6 (Homo sapiens, UniProt P10635); assay: Incubation with recombinant CYP2D6 bactosomes; conditions: 10 min
CYP2E1 = CYP2E1 (Homo sapiens, UniProt P05181); assay: Incubation with recombinant CYP2E1 bactosomes; conditions: 10 min
CYP3A4 = CYP3A4 (Homo sapiens, UniProt P08684); assay: Incubation with recombinant CYP3A4 bactosomes; conditions: 10 min
[4] = Recombinant FMO study, insect cell control (rFMO control); conditions: 10 min
FMO1 = FMO1 (Homo sapiens, UniProt Q01740); assay: Incubation with recombinant FMO1 supersomes; conditions: rFMO1, 10 µg/mL TATP-OH, 10 min
FMO3 = FMO3 (Homo sapiens, UniProt P31513); assay: Incubation with recombinant FMO3 supersomes; conditions: rFMO3, 10 µg/mL TATP-OH, 10 min
FMO5 = FMO5 (Homo sapiens, UniProt P49326); assay: Incubation with recombinant FMO5 supersomes; conditions: rFMO5, 10 µg/mL TATP-OH, 10 min
HLM [5] = assay: TATP-OH glucuronidation, HLM positive control; conditions: HLM 1 mg protein/mL, 10 µg/mL TATP-OH, 2 h
[6] = TATP-OH glucuronidation, insect cell control (rUGT control); conditions: 10 µg/mL TATP-OH, 2 h
UGT1A1 = UGT1A1 (Homo sapiens, UniProt P22309); assay: TATP-OH glucuronidation by recombinant UGT1A1; conditions: rUGT1A1 500 µg protein/mL, 10 µg/mL TATP-OH, 2 h
UGT1A3 = UGT1A3 (Homo sapiens, UniProt P35503); assay: TATP-OH glucuronidation by recombinant UGT1A3; conditions: rUGT1A3 500 µg protein/mL, 10 µg/mL TATP-OH, 2 h
UGT1A4 = UGT1A4 (Homo sapiens, UniProt P22310); assay: TATP-OH glucuronidation by recombinant UGT1A4; conditions: rUGT1A4 500 µg protein/mL, 10 µg/mL TATP-OH, 2 h
UGT1A6 = UGT1A6 (Homo sapiens, UniProt P19224); assay: TATP-OH glucuronidation by recombinant UGT1A6; conditions: rUGT1A6 500 µg protein/mL, 10 µg/mL TATP-OH, 2 h
UGT1A9 = UGT1A9 (Homo sapiens, UniProt O60656); assay: TATP-OH glucuronidation by recombinant UGT1A9; conditions: rUGT1A9 500 µg protein/mL, 10 µg/mL TATP-OH, 2 h
UGT2B7 = UGT2B7 (Homo sapiens, UniProt P16662); assay: TATP-OH glucuronidation by recombinant UGT2B7; conditions: rUGT2B7 500 µg protein/mL, 10 µg/mL TATP-OH, 2 h
HLM [7] = assay: TATP-OH substrate depletion in HLM; conditions: 1 µM TATP-OH, 1 mg/mL HLM
HLM [8] = assay: TATP hydroxylation (TATP-OH formation) in HLM with chemical inhibitors or heat; conditions: HLM preheated for 5 min at 45 ℃; 37 ℃ = 100%
[9] = system: human liver microsomes (HLM); assay: Metabolite identification, TATP incubation in human liver microsomes with NADPH; conditions: HLM 1 mg/mL, 10 µg/mL TATP
[10] = system: dog liver microsomes (DLM); assay: Metabolite identification, TATP incubation in dog liver microsomes
[11] = system: rat liver microsomes (RLM); assay: Metabolite identification, TATP incubation in rat liver microsomes
[12] = system: glutathione S-transferase (GST); assay: Glutathione conjugation, TATP in HLM with GSH; conditions: HLM with 5 mM GSH
UGT in HLM = assay: Glucuronidation, TATP in HLM with NADPH and UDPGA; conditions: NADPH, 5.5 mM UDPGA, alamethicin
CYP2B6 [13] = target: T1, CYP2B6; assay: Michaelis-Menten kinetics of TATP hydroxylation by rCYP2B6 and clearance scale-up
human liver microsomes = assay: Rate of TATP hydroxylation in human liver microsomes; conditions: 100 µM TATP, 1 mg/mL liver microsomes, up to 10 min
[14] = system: human lung microsomes (HLungM); assay: Rate of TATP hydroxylation in human lung microsomes; conditions: for Rate of TATP-OH formation: 100 µM TATP
[15] = Urine analysis of laboratory workers exposed to TATP vapor; conditions: depending on the exposure level
[16] = at 20 ℃; cited from earlier work
canine microsomes = conditions: cited from earlier work
CYP2B6 [17] = target: T1, CYP2B6; assay: Bupropion hydroxylation (CYP2B6 probe) in HLM with chemical inhibitors or heat; conditions: inhibitor preincubated in HLM for 30 min (1-ABT 1 mM, MMI 500 µM, TIC 100 µM); substrate bupropion 100 µM; no inhibitor = 100%

SMILES: CC1(C)OOC(C)(C)OOC(C)(CO)OO1
- Percent TATP-OH remaining (HLM [1]; HLM, 10 µg/mL TATP-OH): 69 ± 5%
- Percent TATP-OH remaining ([2]; 10 µg/mL TATP-OH): 76 ± 4%
- Percent TATP-OH remaining (CYP1A2; rCYP1A2, 10 µg/mL TATP-OH): 77 ± 2%
- Percent TATP-OH remaining (CYP2B6 [3]; rCYP2B6, 10 µg/mL TATP-OH, 10 min): 60 ± 3%
- TATP-OH depletion (CYP2B6 [3]; rCYP2B6, 10 min): 40%
- Percent TATP-OH remaining (CYP2C9; rCYP2C9, 10 µg/mL TATP-OH): 71 ± 8%
- Percent TATP-OH remaining (CYP2C19; rCYP2C19, 10 µg/mL TATP-OH): 76 ± 5%
- Percent TATP-OH remaining (CYP2D6; rCYP2D6, 10 µg/mL TATP-OH): 76 ± 5%
- Percent TATP-OH remaining (CYP2E1; rCYP2E1, 10 µg/mL TATP-OH): 73 ± 5%
- Percent TATP-OH remaining (CYP3A4; rCYP3A4, 10 µg/mL TATP-OH): 78 ± 6%
- Percent TATP-OH remaining ([4]; 10 µg/mL TATP-OH): 69 ± 3%
- Percent TATP-OH remaining (FMO1): 78 ± 12%
- Percent TATP-OH remaining (FMO3): 78 ± 6%
- Percent TATP-OH remaining (FMO5): 72 ± 7%
- TATP-O-glucuronide formation, TATP-glucuronide/IS area count (HLM [5]): 0.26 ± 0.02 area count relative to IS
- TATP-O-glucuronide formation, TATP-glucuronide/IS area count [6]: not observed
- TATP-O-glucuronide formation, TATP-glucuronide/IS area count (UGT1A1): not observed
- TATP-O-glucuronide formation, TATP-glucuronide/IS area count (UGT1A3): not observed
- TATP-O-glucuronide formation, TATP-glucuronide/IS area count (UGT1A4): not observed
- TATP-O-glucuronide formation, TATP-glucuronide/IS area count (UGT1A6): not observed
- TATP-O-glucuronide formation, TATP-glucuronide/IS area count (UGT1A9): not observed
- TATP-O-glucuronide formation, TATP-glucuronide/IS area count (UGT2B7): 0.05 ± 0.03 area count relative to IS
- In vitro intrinsic clearance (Clint) from half-life (HLM [7]): 0.042 mL/min/mg
- Half-life (t1/2) by substrate depletion (HLM [7]; NADPH, up to 60 min): 16 min
- TATP-OH formation in 15 min, percent found (HLM [8]): 69 ± 4%

SMILES: CC1(C)OOC(C)(C)OOC(C)(C)OO1
- Metabolite formed from TATP [9]: TATP-OH
- Metabolite formed from TATP [10]: TATP-OH
- Metabolite formed from TATP [11]: TATP-OH
- Glutathione metabolite conjugates [12]: no detectable glutathione metabolite conjugates
- Metabolite observed when incubated with UDPGA (UGT in HLM): TATP-O-glucuronide
- [TATP-OH] formed from TATP (HLM [1]; HLM 200 pmol CYP/mL, 10 µg/mL TATP): 1.47 ± 0.07 µM and 1.5 ± 0.1 µM
- [TATP-OH] formed from TATP ([2]; 10 µg/mL TATP): not observed
- [TATP-OH] formed from TATP (CYP1A2; rCYP1A2 100 pmol CYP/mL, 10 µg/mL TATP): not observed
- [TATP-OH] formed from TATP (CYP2B6 [3]; rCYP2B6 100 pmol CYP/mL, 10 µg/mL TATP, 10 min): 5.59 ± 0.3 µM and 5.6 ± 0.3 µM
- [TATP-OH] formed from TATP (CYP2C9; rCYP2C9 100 pmol CYP/mL, 10 µg/mL TATP): not observed
- [TATP-OH] formed from TATP (CYP2C19; rCYP2C19 100 pmol CYP/mL, 10 µg/mL TATP): not observed
- [TATP-OH] formed from TATP (CYP2D6; rCYP2D6 100 pmol CYP/mL, 10 µg/mL TATP): not observed
- [TATP-OH] formed from TATP (CYP2E1; rCYP2E1 100 pmol CYP/mL, 10 µg/mL TATP): not observed
- [TATP-OH] formed from TATP (CYP3A4; rCYP3A4 100 pmol CYP/mL, 10 µg/mL TATP): not observed
- [TATP-OH] formed from TATP ([4]; 10 µg/mL TATP): not observed
- Clearance compared to common drugs (CYP2B6 [13]): moderate
- Scale-up Clint per kilogram body weight (CYP2B6 [13]; 0.088 nmol CYP2B6/mg protein, 45 mg protein/g liver, 20 g liver/kg): 485 mL/min/kg
- Vmax of TATP hydroxylation by CYP2B6 (CYP2B6 [13]; 50 nM rCYP2B6, 0.1 to 20 µM TATP, Michaelis-Menten): 8.7 nmol/min/nmol CYP2B6
- In vitro clearance (CYP2B6 [13]; human, per mg microsomal protein): 0.54 mL/min/mg protein
- Km (CYP2B6 [13]; read-out: Km of TATP hydroxylation by CYP2B6, 50 nM rCYP2B6, 0.1 to 20 µM TATP, Michaelis-Menten): 1400 nM
- In vivo intrinsic clearance (Cl), hepatic extrapolation (CYP2B6 [13]; well-stirred model, Q = 21 mL/min/kg, no protein binding): 20 mL/min/kg
- Rate of TATP-OH formation (human liver microsomes): 0.425 ± 0.06 nmol/min/mg
- Rate of TATP-OH formation ([14]; 1 mg/mL lung microsomes lot1410246): < LOQ
- Rate of TATP-OH formation ([14]; 1 mg/mL lung microsomes lot1710142): < LOQ
- TATP hydroxylation in the lungs ([14]; compared with liver microsomes): negligible
- TATP to TATP-O-glucuronide in vivo clearance time [15]: within about a day
- Partial pressure [16]: 4–7 Pa
- Clearance of TATP in dogs (canine microsomes): 0.36 mL/min/mg protein
- BUP-OH formation in 15 min, percent found (CYP2B6 [17]): 62% and 62 ± 2%

Where “and” joins values, the source holds several entries; their conditions need not be identical. Identical values can stand only once. This is a selection: effects in other tests are not listed, and their absence says nothing.
